This is a selection; strong and weak results do not stand in their true shares.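 Treatment: one concentration, 48 hours, 96-well format. Scoring: percent growth, with anything below 10 considered active.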 Calls of active or inactive are those of the source.

Some test systems named below: NCI/ADR-RES ovarian; T-47D breast; BT-549 breast; MDA-MB-435 melanoma; SW-620 colon; MCF7 breast; HCT-116 colon; HCC-2998 colon; KM12 colon.
What all share (test): NCI-60 one-dose screen, 48 h (100 = growth as untreated, 0 = no growth, -100 = all killed)
Common to all, as to conditions: 10 µM unless noted

In the case of `ClCCN1c2ccccc2Sc2ccccc21`, the growth was inactive: 103% in the experiment with NCI/ADR-RES ovarian; inactive: 91.2% in the experiment with T-47D breast; inactive: 107% in the experiment with BT-549 breast; inactive: 98.5% in the experiment with MDA-MB-435 melanoma; inactive: 98.3% with SW-620 colon; inactive: 102% with MCF7 breast. For the same compound, the results for the growth with HCT-116 colon, in the experiment on HCC-2998 colon and in the experiment with KM12 colon were inactive: 101%, inactive: 94.8% and inactive: 97.3%, respectively.

Take `CC(C)(NCCCl)C(O)c1ccccc1` (centres undefined): the growth with NCI/ADR-RES ovarian is inactive: 94.6%; with T-47D breast it was inactive: 71.8%; in the experiment with BT-549 breast it was inactive: 91.3%; in the experiment on MDA-MB-435 melanoma it was inactive: 89.2%; in the experiment on SW-620 colon, inactive: 82.8%; in the experiment on MCF7 breast it was inactive: 62.1%. In addition, the growth in the experiment on HCT-116 colon was inactive: 72.9%; in the experiment with HCC-2998 colon, inactive: 81.7%; in the experiment on KM12 colon it was inactive: 93.9%.

On to `Nc1cccc([As](=O)(O)c2ccccc2)c1`, for which the growth in the experiment on NCI/ADR-RES ovarian is inactive: 97.1%; in the experiment on T-47D breast it was inactive: 107%; with BT-549 breast, inactive: 117%; with MDA-MB-435 melanoma, inactive: 105%; with SW-620 colon, inactive: 106%; with MCF7 breast it was inactive: 92.1%. Also, the values for the growth in the experiment with HCT-116 colon, in the experiment with HCC-2998 colon and in the experiment with KM12 colon were inactive: 96.2%, inactive: 93.5% and inactive: 114%, respectively.

`Cc1ccc(S(=O)(=O)n2cc([C@@]3(O)C[C@H](CC#N)OC3=O)c3ccccc32)cc1`: the growth was active: -0.495% in the experiment on NCI/ADR-RES ovarian; inactive: 51.8% in the experiment on T-47D breast; active: 2.62% in the experiment on BT-549 breast; active: -52.4% with MDA-MB-435 melanoma; active: 9.71% in the experiment with SW-620 colon; active: -1.71% in the experiment with MCF7 breast. For the same compound, the growth was inactive: 42.4% with HCT-116 colon, active: -24.5% in the experiment with HCC-2998 colon and active: -35% in the experiment on KM12 colon.

For the compound `O=C(N(CCCl)CCCl)C(Cl)(Cl)Cl`, the growth in the experiment with NCI/ADR-RES ovarian is inactive: 107%; in the experiment on T-47D breast it was inactive: 98.2%; in the experiment on BT-549 breast it was inactive: 105%; with MDA-MB-435 melanoma it was inactive: 101%; in the experiment with SW-620 colon, inactive: 98.6%; in the experiment with MCF7 breast it was inactive: 92.8%. In addition, the growth with HCT-116 colon is inactive: 100%; with HCC-2998 colon it was inactive: 108%; in the experiment on KM12 colon, inactive: 118%.

`Cc1ccccc1OP(=O)(Cl)Oc1ccccc1C`: the growth with NCI/ADR-RES ovarian was inactive: 112%; in the experiment with T-47D breast it was inactive: 93.7%; in the experiment on BT-549 breast it was inactive: 113%; in the experiment on MDA-MB-435 melanoma it was inactive: 105%; in the experiment on SW-620 colon, inactive: 107%; in the experiment on MCF7 breast, inactive: 95.8%. For the same compound, the growth in the experiment with HCT-116 colon is inactive: 98.9%; with HCC-2998 colon, inactive: 117%; with KM12 colon, inactive: 110%.

In the case of `COC1OC(CNCCCl)C2OC(C)(C)OC12` (centres undefined), the growth in the experiment on NCI/ADR-RES ovarian is inactive: 106%; in the experiment on T-47D breast, inactive: 104%; with BT-549 breast it was inactive: 87.3%; with MDA-MB-435 melanoma, inactive: 115%; in the experiment with SW-620 colon, inactive: 115%; in the experiment with MCF7 breast, inactive: 104%. In addition, the figures for the growth in the experiment on HCT-116 colon, in the experiment with HCC-2998 colon and in the experiment with KM12 colon were inactive: 96%, inactive: 75.7% and inactive: 113%, respectively.

For `Cc1ccc(SP(=O)(CCl)N(CCCl)CCCl)cc1` (centres undefined), the growth in the experiment with NCI/ADR-RES ovarian was inactive: 99.1%; with T-47D breast it was inactive: 94.8%; with BT-549 breast, inactive: 98.2%; in the experiment with MDA-MB-435 melanoma, inactive: 98.7%; in the experiment with SW-620 colon it was inactive: 97.1%; with MCF7 breast it was inactive: 99.1%. The growth is inactive: 103% with HCT-116 colon, inactive: 108% in the experiment with HCC-2998 colon and inactive: 105% with KM12 colon.

Consider `CCN(CCCl)c1ccc(CCC(=O)O)cc1`, for which the growth with NCI/ADR-RES ovarian was inactive: 106%; in the experiment on T-47D breast, inactive: 90.6%; with BT-549 breast, inactive: 99.4%; in the experiment on MDA-MB-435 melanoma, inactive: 109%; with SW-620 colon, inactive: 92.5%; in the experiment on MCF7 breast, inactive: 93.6%. Also, the growth in the experiment with HCT-116 colon is inactive: 98.1%; in the experiment with HCC-2998 colon, inactive: 104%; in the experiment with KM12 colon it was inactive: 100%.

On to `Nc1ccc(N(CCCl)CCCl)cc1`, for which the growth in the experiment on NCI/ADR-RES ovarian is inactive: 62.6%; in the experiment on T-47D breast it was inactive: 59.6%; in the experiment with BT-549 breast, inactive: 84.3%; with MDA-MB-435 melanoma, inactive: 88.3%; in the experiment on SW-620 colon it was inactive: 51.5%; with MCF7 breast, inactive: 34.9%. In addition, the growth in the experiment on HCT-116 colon was inactive: 64.5%; in the experiment on HCC-2998 colon, inactive: 86%; in the experiment with KM12 colon, inactive: 83.1%.

On to `COC(=O)C1(C)COP(=O)(Nc2ccccc2)OC1` (centres undefined), for which the growth in the experiment with NCI/ADR-RES ovarian was inactive: 100%; in the experiment with T-47D breast it was inactive: 91.9%; in the experiment on BT-549 breast, inactive: 102%; with MDA-MB-435 melanoma it was inactive: 105%; in the experiment on SW-620 colon, inactive: 102%; in the experiment with MCF7 breast it was inactive: 103%. Besides, the growth is inactive: 99.5% in the experiment on HCT-116 colon, inactive: 107% with HCC-2998 colon and inactive: 96.2% in the experiment with KM12 colon.

Turning to `C[As](=O)(O)c1cccc(C(=O)O)c1`, the growth with NCI/ADR-RES ovarian is inactive: 104%; with T-47D breast, inactive: 97.7%; in the experiment with BT-549 breast, inactive: 102%; with MDA-MB-435 melanoma it was inactive: 107%; in the experiment on SW-620 colon, inactive: 104%; in the experiment with MCF7 breast, inactive: 91.7%. In addition, the growth was inactive: 96.7% in the experiment on HCT-116 colon, inactive: 98.2% with HCC-2998 colon and inactive: 118% in the experiment on KM12 colon.

For `CCN(CC)CCOC(=O)C(O)(c1cccc(OC)c1OC)c1cccc(OC)c1OC`, the growth in the experiment on NCI/ADR-RES ovarian was inactive: 97.8%; in the experiment with T-47D breast, inactive: 87.6%; with BT-549 breast it was inactive: 105%; in the experiment with MDA-MB-435 melanoma it was inactive: 110%; with SW-620 colon it was inactive: 95.5%; in the experiment with MCF7 breast, inactive: 99%. Also, the growth in the experiment on HCT-116 colon is inactive: 95%; in the experiment with HCC-2998 colon, inactive: 116%; in the experiment on KM12 colon, inactive: 103%.

Turning to `O=[N+]([O-])C1C(O)C(O)C([N+](=O)[O-])C(O)C1O` (centres undefined), the growth is inactive: 105% with NCI/ADR-RES ovarian; inactive: 99.8% with T-47D breast; inactive: 99.9% with BT-549 breast; inactive: 99.8% in the experiment on MDA-MB-435 melanoma; inactive: 106% with SW-620 colon; inactive: 92.1% in the experiment on MCF7 breast. Also, the growth in the experiment on HCT-116 colon was inactive: 104%; in the experiment with HCC-2998 colon it was inactive: 102%; in the experiment on KM12 colon, inactive: 117%.

On to `COc1ccc([As](=O)(O)O)cc1`, for which the growth is inactive: 112% in the experiment on NCI/ADR-RES ovarian; inactive: 101% in the experiment on T-47D breast; inactive: 106% in the experiment with BT-549 breast; inactive: 113% in the experiment with MDA-MB-435 melanoma; inactive: 110% in the experiment with SW-620 colon; inactive: 100% in the experiment on MCF7 breast. The growth in the experiment on HCT-116 colon was inactive: 102%; with HCC-2998 colon it was inactive: 111%.
